Sampled rows, rich in hits. Any-hit rate of the full collection: about 2.1%.
INS-1E GSIS act: primary screen for activators of insulin secretion dependent on glucose, INS-1E cells, GLuc reporter luminescence; AID 743287; 0.61% of 370,000 active; INS-1E GLuc reporter insulin secretion, 2-3 h; activation, % at 16.6 µM;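 active means lowest replicate activation of at least 40%, so every replicate reaches that level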;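 further: 0% = median of neutral control wells and 100% = median of IBMX positive control wells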
Yeast UUG start: modulators of yeast start codon fidelity, primary screen, whole organism, S. cerevisiae, single point, plate reader | AID 602363, 2012 | actives 0.13% (n = 350,000) | activity score, % at 18.7 µM | S. cerevisiae UUG-firefly luciferase reporter, luminescence/redox ratio;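 active means replicate mean at a twofold rise or more, about +100% in these data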;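 further: firefly luciferase made from a UUG start codon reports start codon fidelity; reporter light over untreated wells divided by growth signal over untreated wells; some hits fall short of that in this replicate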
SMARCA2 act: increases SMARCA2 function in MMTV reporter cells | MG213 cells, MMTV-luciferase reporter, dexamethasone, overnight | activation, % at 9.1 µM | 1% of 370,000 active | AID 652017; in the data active means activation above about 7.8%;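 further: 0% = vehicle wells and 100% = reference activator wells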
Rev-erbA mod: modulates human Rev-erb alpha binding to DNA; activity, % at 10 µM; Rev-erbα–FITC-DNA binding, fluorescence polarization, 90 min; P20393; AID 1259318; 0.79% of 370,000 active;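 active means activity above about 14%, limit read from the data; passing the limit was not always enough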;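 further: 0% = DMSO wells with 35 nM protein and 100% = DMSO wells with 750 nM protein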
PDI turbidity: PDI (human) enzyme inhibition; P07237; PDI insulin aggregation turbidity, A650, 90 min; inhibition, % at 10 µM; 0.052% of 350,000 active; AID 588391;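 active means mean inhibition across replicates of 30% or more, whatever share of single replicates reach that level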
ERp5 inh: ERp5 (human) disulfide isomerase inhibition; inhibition, % at 9.99 µM; Q15084; 0.05% of 350,000 active; ERp5 insulin aggregation, absorbance 650 nm, 90 min; AID 651711;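 active means mean replicate inhibition above about 25%, with every replicate also reaching it, limit read from the data, passing the limit was not always enough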
NR1D1 mod conf: confirmation of modulators of human Rev-erb alpha DNA binding | shares compounds with Rev-erbA mod | Rev-erb alpha FITC-DNA binding, fluorescence polarization, 90 min | activation, % at 25 µM | 61% of 3,000 active;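 active means activation at or above a set limit, or at least 3 SD above the negative control mean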;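 further: 0% = 35 nM protein with DMSO and 100% = 750 nM protein high control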
RORg DNA counter: counter-screen for Rev-erb alpha modulators: RORgamma DNA binding; IC50, µM; shares compounds with Rev-erbA mod; 8% of 910 active; purified RORgamma protein-FITC-DNA binding, fluorescence polarization; AID 1259320;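 active means Compounds whose fitted half-maximal concentration for disrupting protein-DNA binding is below 10 micromolar; the record names Rev-erb in its text, so the target is in doubt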
Active calls of the source: *; i = inactive; . = no result given.

SMILES	INS-1E GSIS act	Yeast UUG start	SMARCA2 act	Rev-erbA mod	PDI turbidity	ERp5 inh	NR1D1 mod conf	others
COc1ccc2c(C)cc(SCC(=O)Nc3cccnc3Cl)nc2c1	5	.	-1	59*	14	2	69*	RORg DNA counter=i
COc1ccc2c(-c3ccccc3)cc(SCC(=O)NC(N)=O)nc2c1	4	.	-1	40*	-6	0	14
O=C(CCN1CCCCC1)NCC[C@H]1CC[C@H](NC(=O)Nc2ccc(Cl)cc2)[C@H](CO)O1	-1	10	.	.	.	-1	.
Cc1ccc(S(=O)(=O)N[C@@H]2C=C[C@H](CC(=O)NCc3ccccc3F)O[C@@H]2CO)cc1	-5	-3	.	.	.	-1	.
COCCn1c(SCC(=O)c2c[nH]c3ccccc23)nnc1-c1ccncc1	.	.	.	.	-3	.	.
CCn1c(SCC(=O)c2c[nH]c3ccccc23)nnc1-c1cccs1	2	-10	3	102*	11	.	112*	RORg DNA counter=>40
O=C(Nc1ccon1)c1sc2cc(F)ccc2c1Cl	.	1	5	34*	-1	.	22*
O=C(NC1=NCCS1)c1sc2cc(F)ccc2c1Cl	1	.	6	1	-7	.	.
COc1cccc(-c2ccc([C@H]3[C@H](CO)N4C(=O)CN(C(=O)C5CCCC5)C[C@@H]34)cc2)c1	-10	.	.	.	.	2	.
CCc1cccc(NC(=O)Cn2c(=O)c3cccn3c3ccccc32)c1	7	-18	-2	28*	16	7	15
COc1cccc(CNC(=O)Cn2c(=O)c3cccn3c3ccccc32)c1	34	-6	-2	19*	4	1	-4
CN1C(=O)c2cc(NC(=O)NCc3ccccc3)ccc2OC[C@@H]2O[C@H](CC(=O)NCC3CCCCC3)CC[C@H]21	-16	11	.	.	.	1	.
C=CCNC(=O)Cn1nnc(-c2ccc(-c3ccc(OC)cc3)cc2)n1	4	-14	1	39*	-2	4	1
Cc1ccc2[nH]c(=O)c3cc(C(=O)N(C)C4CCCCC4)sc3c2c1	0	-12	-2	21*	13	2	-1
CCOc1ccc(CCNC(=O)Cn2ncn3nc(-c4ccc(OC)cc4)cc3c2=O)cc1OCC	17	0	-1	23*	9	3	-2
CCn1c2ccccc2c2cc(NC(=O)CSc3nnc(-c4cccc(Cl)c4)o3)ccc21	.	-19	-2	32*	17	.	11
CCCOc1cccc(C2C(C(=O)c3ccco3)=C(O)C(=O)N2c2nnc(C)s2)c1 (stereo not drawn)	8	-34	1	9	-7	-3	.
CCCCOc1cccc(C2C(C(=O)c3ccc(C)o3)=C(O)C(=O)N2c2nnc(C)s2)c1 (stereo not drawn)	13	-17	-1	18*	4	-7	18*
CO[C@H]1CN(C)C(=O)c2ccc(NC(=O)c3ccccc3F)cc2OC[C@H](C)NC[C@@H]1C	-1	.	.	.	.	0	.
Cc1ccc2nsnc2c1NC(=O)CCl	0	.	1	1	-5	3	.
Cc1ccc2nsnc2c1NC(=O)Cc1ccc(Cl)cc1	12	-2	-4	51*	-9	-1	13
Cc1ccc2nc(NCCc3ccc(Cl)cc3)c3nncn3c2c1	17	-13	0	28*	-9	0	8
C[C@H]1CN([C@@H](C)CO)S(=O)(=O)c2ccc(/C=C/c3ccccc3)cc2O[C@H]1CN(C)C(=O)c1ccncc1	-39	-9	.	.	.	2	.
CCN(C[C@H]1[C@@H](c2ccccc2)[C@H](CO)N1C(C)=O)C(=O)c1ccccn1	3	-3	.	.	.	-7	.
Cc1c(N=C2N=C(NC(=O)c3ccc(F)cc3)c3ccccc32)c(=O)n(-c2ccccc2)n1C	4	.	-2	92*	-4	6	51*

Retrieved by structure from above:
SMILES	INS-1E GSIS act	Yeast UUG start	SMARCA2 act	Rev-erbA mod	PDI turbidity	ERp5 inh	NR1D1 mod conf	others
O=C(NC1=NCCS1)c1sc2cc(F)ccc2c1Cl	1	.	6	1	-7	.	.
Cc1ccc(S(=O)(=O)N[C@@H]2C=C[C@H](CC(=O)NCc3ccccc3F)O[C@@H]2CO)cc1	-5	-3	.	.	.	-1	.
Cc1ccc2[nH]c(=O)c3cc(C(=O)N(C)C4CCCCC4)sc3c2c1	0	-12	-2	21*	13	2	-1
CCCCOc1cccc(C2C(C(=O)c3ccc(C)o3)=C(O)C(=O)N2c2nnc(C)s2)c1 (stereo not drawn)	13	-17	-1	18*	4	-7	18*

Back to the main list; the 2 compounds before the break are reprinted first.
SMILES	INS-1E GSIS act	Yeast UUG start	SMARCA2 act	Rev-erbA mod	PDI turbidity	ERp5 inh	NR1D1 mod conf	others
CCN(C[C@H]1[C@@H](c2ccccc2)[C@H](CO)N1C(C)=O)C(=O)c1ccccn1	3	-3	.	.	.	-7	.
Cc1c(N=C2N=C(NC(=O)c3ccc(F)cc3)c3ccccc32)c(=O)n(-c2ccccc2)n1C	4	.	-2	92*	-4	6	51*
C[C@@H]1CN([C@H](C)CO)C(=O)c2cc(NC(=O)Cc3ccccc3)ccc2O[C@@H]1CN(C)Cc1ccc(C(=O)Nc2ccccc2N)cc1	15	5	.	.	.	5	.
CCN(c1cccc(C)c1)S(=O)(=O)c1cc2c3c(c1)CCC(=O)N3CCC2	0	-5	3	53*	2	1	62*	RORg DNA counter=>40
CCCN(CCC)S(=O)(=O)c1cc2c3c(c1)CCN3C(=O)CC2	-1	.	0	-4	-4	-4	.
Cc1c(/C(O)=C2\C(=O)C(=O)N(CCN(C)C)C2c2cccs2)cnn1-c1ccccc1 (stereo not drawn)	0	-9	-1	19*	-3	.	27*
CCN(CC)CCN1C(=O)C(=O)/C(=C(/O)c2ccc(OC(C)C)cc2)C1c1cccs1 (stereo not drawn)	-4	-8	7	41*	1	0	27*
Cc1c(/C(O)=C2\C(=O)C(=O)N(CCN(C)C)C2c2cccnc2)cnn1-c1ccccc1 (stereo not drawn)	2	-17	-3	2	-4	.	.
O=C(COc1ccccc1)NC(=S)Nc1cccc([N+](=O)[O-])c1	-7	-7	-2	1	12	.	.
O=C(COc1ccccc1)NC(=S)Nc1ccc2c(c1)Cc1ccccc1-2	4	.	5	77*	-8	-2	25*
O=C(Cc1ccccn1)N[C@@H]1CC[C@@H](CCn2cc(-c3cccnc3)nn2)O[C@H]1CO	3	-10	.	.	.	3	.
COc1ccc2c(c1)oc(=O)c1c3ccccc3[nH]c21	8	-18	0	75*	-4	-3	62*	RORg DNA counter=>40
COc1ccc2c(c1)oc(=O)c1ccccc12	8	-7	3	2	.	4	.
C[C@@H]1CCCCO[C@H](CN(C)CC2CC2)[C@@H](C)CN([C@H](C)CO)C(=O)c2cc(NC(=O)Nc3ccccc3)ccc2O1	3	.	.	.	.	2	.
C[C@H](CO)N1C[C@H](C)[C@H](CN(C)C(=O)NC2CCCCC2)Oc2ncc(-c3cccc(C(F)(F)F)c3)cc2C1=O	-24	18	.	.	.	0	.
CN(/N=C/c1cccnc1)c1cnn(-c2ccc(F)c(Cl)c2)c(=O)c1Cl	.	-2	-6	26*	1	.	6
CN(/N=C/c1c[nH]c2ccccc12)c1cnn(-c2ccc(F)c(Cl)c2)c(=O)c1Cl	.	-3	-1	0	-3	.	.
Cc1cccnc1NC(=O)c1cc2ccccc2oc1=O	-3	-10	1	43*	0	1	7
CC1CN(C(=O)N2c3ccccc3Sc3ccccc32)C(C)CC1=O (stereo not drawn)	.	-4	-2	44*	3	.	60*
Cc1sc2nc(N3CCOCC3)[nH]c(=O)c2c1-c1ccccc1	13	.	-6	94*	1	-1	128*	RORg DNA counter=>40

Screening results (PubChem BioAssay)
